This is a selection; strong and weak results do not stand in their true shares. Some tests of the compounds listed are not included; inactive here does not mean inactive elsewhere. Active and inactive are the calls of the source. Calls come from the whole dose curve; as a rule, active = well fitted inhibition curve with a large enough effect; inconclusive = small, poorly fitted or top-dose-only effect; inactive = no such curve, though single readings can be large or run the other way.

The experiment is described as follows: qHTS Assay for Identifying the Cell-Membrane Permeable IMPase Inhibitors: Potentiation with Lithium.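 Note: IP1 builds up when IMPase is blocked and the TR-FRET signal falls; plate controls were basal vehicle for no effect and high inhibitor control for full effect; nearly all actives have a fitted effect of over 50% in size.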 Particulars: CHO-M1 cells, IP1 TR-FRET (IP-One), carbachol + lithium; at 59.4 µM (top of the series) unless noted. (In general: Quantitative high-throughput screening tests each substance at several concentrations.)
Take `CN(C)c1cccc(C(=O)NCC2(N(C)C)CCCCC2)c1`: the activity, negative = IMPase inhibition is inactive: -5.94% [at 38.3 µM].
On to `CN1CC[C@H](OC(=O)[C@](O)(c2ccccc2)C2CCCC2)C1`, for which the activity, negative = IMPase inhibition was inactive: 23.6%.
For `O=C(OC1CN2CCC1CC2)C(CO)(c1ccccc1)c1ccccc1` (configuration not stated), the activity, negative = IMPase inhibition was inactive: 26.3% [at 38.3 µM].
The result for `CN1CCC[C@H](OC(=O)[C@](O)(c2ccccc2)C2CCCC2)C1` reads inactive: 26.1%; that for `C=C(C)C#C[C@@](O)(C(=O)OC1CCN(C)CC1)c1ccccc1`, inactive: 18.6%; that for `COc1cccc(C(=O)NCC2(N3CCCCC3)CCCCC2)c1`, inactive: 11.3%.
The value for `C=CCN1CCN(CCOC(=O)C(O)(c2ccccc2)c2ccccc2)CC1` was inactive: 34%; that for `CCN1CCCC(OC(=O)C2(O)c3ccccc3C=Cc3ccccc32)C1` (configuration not stated) was inactive: 0.815%.
As for `CN(C)C1CCCC1OC(=O)C(O)(c1ccccc1)c1ccccc1` (configuration not stated), the activity, negative = IMPase inhibition is inactive: 11.9%.
The result for `Cc1ccccc1C(=O)NCC1(N2CCCCC2)CCCCC1` reads inactive: 9.28%; that for `CC(C)N1C(=O)CC2(CCN(CCOC(=O)C(O)(c3ccccc3)c3ccccc3)CC2)C1=O`, inactive: 3.36% [at 38.3 µM]; that for `O=C(NCC1(N2CCCCC2)CCCCC1)c1cc([N+](=O)[O-])ccc1Cl`, inactive: 8.44%.

(Values after PubChem BioAssay AID1457 (National Center for Advancing Translational Sciences (NCATS), 2008).)
